Data on eight compounds can be found in patent US11452727B2, “Combination therapy for treating cancer” (Epizyme, Inc., priority 2017, dated 2022).

Among the test systems are A549; NCI-H522; NCI-H838; NCI-H1793; NCI-H2110; NCI-H2122; NCI-H23; NCI-H460; NCI-H661; NCI-H1703; NCI-H1299; NCI-H2030; Calu-3; Calu-6; A427; NCI-H1993; HCC827.
Assay in all cases: In vitro combination study with tazemetostat, cell proliferation (Cell Titer Glo)
What all share (details): 7 days tazemetostat pre-treatment, 6 days co-treatment with second agent
In general terms: Cellular ATP, detected with luciferase, serves as a proxy for viable cell number.

As for `CN(Cc1cnc2nc(N)nc(N)c2n1)c1ccc(C(=O)N[C@@H](CCC(=O)O)C(=O)O)cc1` [Methotrexate, methotrexate], the “combinatorial effect with tazemetostat (Loewe volume class)” value (“combinatorial effect with tazemetostat” below) in the test with A549, with NCI-H522 and in the test on NCI-H838 was “Anta. (volumes <−1 denoted “antagonism”)” in each case.
On to `Nc1ncn([C@H]2C[C@H](O)[C@@H](CO)O2)c(=O)n1` [Decitabine, decitabine], for which the “combinatorial effect with tazemetostat” value in the test with NCI-H1793 was “Syn. (Loewe volumes greater than 1 denoted “synergy”)”; in the test on NCI-H2110, “Add. (A value between −1 and 1 denoted “additivity”)”; in the test with NCI-H2122 it was “Syn. (Loewe volumes greater than 1 denoted “synergy”)”; in the test with NCI-H23, “Add. (A value between −1 and 1 denoted “additivity”)”; in the test on NCI-H460, “Syn. (Loewe volumes greater than 1 denoted “synergy”)”; with NCI-H661 it was “Syn. (Loewe volumes greater than 1 denoted “synergy”)”.
`CS(=O)(=O)CCNCc1ccc(-c2ccc3ncnc(Nc4ccc(OCc5cccc(F)c5)c(Cl)c4)c3c2)o1` [Lapatinib, lapatinib]: the “combinatorial effect with tazemetostat” value in the test on A549 was “Add. (A value between −1 and 1 denoted “additivity”)”; with NCI-H1703 it was “Syn. (Loewe volumes greater than 1 denoted “synergy”)”; in the test with NCI-H1793, “Syn. (Loewe volumes greater than 1 denoted “synergy”)”; with NCI-H2110, “Syn. (Loewe volumes greater than 1 denoted “synergy”)”; in the test on NCI-H2122, “Anta. (volumes <−1 denoted “antagonism”)”; with NCI-H460 it was “Syn. (Loewe volumes greater than 1 denoted “synergy”)”. The “combinatorial effect with tazemetostat” value in the test on NCI-H838 is listed as “Syn. (Loewe volumes greater than 1 denoted “synergy”)”.
With `C[C@@H](Oc1cc(-c2cnn(C3CCNCC3)c2)cnc1N)c1c(Cl)ccc(F)c1Cl` [Crizotinib, crizotinib], the “combinatorial effect with tazemetostat” value in the test on A549 is “Add. (A value between −1 and 1 denoted “additivity”)”; in the test on NCI-H1299, “Add. (A value between −1 and 1 denoted “additivity”)”; in the test with NCI-H1793, “Syn. (Loewe volumes greater than 1 denoted “synergy”)”; in the test on NCI-H2030 it was “Syn. (Loewe volumes greater than 1 denoted “synergy”)”; with NCI-H2110, “Add. (A value between −1 and 1 denoted “additivity”)”; in the test with NCI-H2122, “Add. (A value between −1 and 1 denoted “additivity”)”. Further, the “combinatorial effect with tazemetostat” value was “Add. (A value between −1 and 1 denoted “additivity”)” in the test with NCI-H23; “Add. (A value between −1 and 1 denoted “additivity”)” with NCI-H460; “Add. (A value between −1 and 1 denoted “additivity”)” in the test on Calu-3; “Add. (A value between −1 and 1 denoted “additivity”)” in the test on Calu-6.
Turning to oxaliplatin, the “combinatorial effect with tazemetostat” value with A427 is reported as “Syn. (Loewe volumes greater than 1 denoted “synergy”)”; in the test on NCI-H1703, “Anta. (volumes <−1 denoted “antagonism”)”.
In the case of `CCC1=C[C@@H]2CN(C1)Cc1c([nH]c3ccccc13)[C@@](C(=O)OC)(c1cc3c(cc1OC)N(C)[C@H]1[C@@](O)(C(=O)OC)[C@H](OC(C)=O)[C@]4(CC)C=CCN5CC[C@]31[C@@H]54)C2` [Vinorelbine, vinorelbine], the “combinatorial effect with tazemetostat” value in the test with A427 is “Syn. (Loewe volumes greater than 1 denoted “synergy”)”; with NCI-H1993 it was “Add. (A value between −1 and 1 denoted “additivity”)”; in the test on NCI-H2030 it was “Add. (A value between −1 and 1 denoted “additivity”)”; with NCI-H2110 it was “Add. (A value between −1 and 1 denoted “additivity”)”; in the test on NCI-H2122, “Syn. (Loewe volumes greater than 1 denoted “synergy”)”; in the test on NCI-H460, “Add. (A value between −1 and 1 denoted “additivity”)”. For the same compound, the “combinatorial effect with tazemetostat” value in the test on Calu-3 is “Syn. (Loewe volumes greater than 1 denoted “synergy”)”; in the test on HCC827 it was “Add. (A value between −1 and 1 denoted “additivity”)”.
Consider ATRA, for which the “combinatorial effect with tazemetostat” value is “Add. (A value between −1 and 1 denoted “additivity”)” in the test with A427; “No eff” in the test with NCI-H1793; “Anta. (volumes <−1 denoted “antagonism”)” in the test on NCI-H2030; “Anta. (volumes <−1 denoted “antagonism”)” in the test on NCI-H2122; “Syn. (Loewe volumes greater than 1 denoted “synergy”)” in the test with Calu-6; “No eff” in the test on HCC827.
Regarding `C#Cc1cccc(Nc2ncnc3cc(OCCOC)c(OCCOC)cc23)c1` [Erlotinib, erlotinib], the “combinatorial effect with tazemetostat” value is “Anta. (volumes <−1 denoted “antagonism”)” with A549; “Syn. (Loewe volumes greater than 1 denoted “synergy”)” with NCI-H1703; “Add. (A value between −1 and 1 denoted “additivity”)” in the test on NCI-H2030; “Syn. (Loewe volumes greater than 1 denoted “synergy”)” in the test on NCI-H2110; “No eff” with NCI-H23; “No eff” with NCI-H460. The “combinatorial effect with tazemetostat” value with NCI-H661, with NCI-H838 and in the test on Calu-3 was “Syn. (Loewe volumes greater than 1 denoted “synergy”)” each time.
